The values that follow come from ChEMBL document CHEMBL1129756, “Conformationally restricted TRH analogs: a probe for the pyroglutamate region” (J Med Chem, 1996).

Experiment [1] deals with T1, Thyrotropin-releasing hormone receptor (Mus musculus, UniProt P21761).
T1 sequence (P21761 whole entry): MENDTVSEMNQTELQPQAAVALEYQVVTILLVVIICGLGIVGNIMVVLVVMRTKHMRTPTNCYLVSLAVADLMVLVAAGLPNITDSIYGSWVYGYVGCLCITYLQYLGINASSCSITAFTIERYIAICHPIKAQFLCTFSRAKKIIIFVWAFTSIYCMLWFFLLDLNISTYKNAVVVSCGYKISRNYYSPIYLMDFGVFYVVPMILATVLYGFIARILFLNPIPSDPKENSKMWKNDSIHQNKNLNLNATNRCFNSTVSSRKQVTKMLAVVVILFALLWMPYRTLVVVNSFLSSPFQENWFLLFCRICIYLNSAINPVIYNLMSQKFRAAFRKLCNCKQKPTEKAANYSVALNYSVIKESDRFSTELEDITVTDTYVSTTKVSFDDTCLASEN
In words: Binding affinity against TRH-R receptor in AtT-20 mouse pituitary tumor cells.

For experiment [2], the target named is T1, Thyrotropin-releasing hormone receptor. In words: Effective concentration required to activate TRH-R receptor in AtT-20 mouse pituitary tumor cells.

Regarding `NC(=O)[C@@H]1CCCN1C(=O)[C@H](Cc1ccccc1)NC(=O)[C@@H]1CCC(=O)N1`, the Ki (usually a measure of affinity in units of concentration, obtained from inhibition or displacement) in experiment [1] is 1500 nM. Further, in experiment [2], the EC50 (as a rule, the concentration that produces a half-maximal response) was determined as 110 nM.
